Results as given in ChEMBL document CHEMBL3112560 (Bioorg Med Chem Lett, 2014).

Organism: Rattus norvegicus
Assay: Inhibition of VGLUT in rat brain assessed as [3H]-L-Glu uptake into synaptic vesicles at 250 uM relative to control
Type: tissue-based

CC(=O)[C@H]1CC[C@H]2[C@@H]3CC[C@@H]4C[C@H](O)CC[C@]4(C)[C@H]3CC[C@]12C
inhibition: 100%
